# Values of other authors as cited in patent US20130338178A1, “SIRTUIN MODULATORS AS INHIBITORS OF CYTOMEGALOVIRUS” (THE TRUSTEES OF PRINCETON UNIVERSITY, priority 2011, published 2013).
# Molecular target: T1, SIRT1 (Homo sapiens, UniProt Q96EB6)
# T1 sequence (Q96EB6 1-747): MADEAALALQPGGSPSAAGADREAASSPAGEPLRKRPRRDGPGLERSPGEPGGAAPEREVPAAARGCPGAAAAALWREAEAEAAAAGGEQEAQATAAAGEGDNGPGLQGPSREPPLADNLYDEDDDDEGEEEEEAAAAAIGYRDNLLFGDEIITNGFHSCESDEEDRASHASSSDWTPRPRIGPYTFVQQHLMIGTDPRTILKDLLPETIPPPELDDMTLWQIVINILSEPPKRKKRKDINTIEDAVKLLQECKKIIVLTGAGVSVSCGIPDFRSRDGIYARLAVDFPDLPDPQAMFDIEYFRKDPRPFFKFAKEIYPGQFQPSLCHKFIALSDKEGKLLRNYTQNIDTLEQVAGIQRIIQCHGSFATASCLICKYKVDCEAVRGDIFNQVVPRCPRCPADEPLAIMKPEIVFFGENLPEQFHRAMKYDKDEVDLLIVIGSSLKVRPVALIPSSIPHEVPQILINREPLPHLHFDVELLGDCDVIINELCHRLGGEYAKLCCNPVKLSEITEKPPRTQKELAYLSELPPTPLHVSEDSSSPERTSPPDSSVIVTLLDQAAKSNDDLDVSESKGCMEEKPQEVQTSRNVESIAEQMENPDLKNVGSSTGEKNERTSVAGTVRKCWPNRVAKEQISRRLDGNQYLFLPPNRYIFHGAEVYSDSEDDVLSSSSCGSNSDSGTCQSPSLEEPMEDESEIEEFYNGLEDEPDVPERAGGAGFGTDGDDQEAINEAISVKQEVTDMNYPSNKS
# Conditions: SIRT1 preincubated with NAD+ and compound; means ± SD; cited from earlier work
compound,measurement,value
CCCC(=O)CC(=O)NCCCC[C@H](NC(=O)OCc1ccccc1)C(=O)Nc1ccccc1 [2x],IC50,56 ± 5.3 µM
